# Source: patent publication US10058100B2, “Hydrogen sulfide releasing compounds and their use” (THE UNIVERSITY OF EXETER, priority 2011, dated 2018)
# Test system: Human brain microvascular endothelial cells (HMEC)
# Assay: Prevention of cell death induced by oxidants (SIN-1, H2O2, 4-HNE), Alamar Blue
# Type: cell-based
substance,measurement,setting,value
morpholin-4-ium 4-methoxyphenyl(morpholino) phosphinodithioate,cell death induced by 4-HNE,"4-HNE 10 μM, GYY4137 100 μM and 500 μM, FIG. 11",significantly inhibited
same,SIN-1 and 4-HNE induced cell death,"HCMEC/D3 cells, GYY4137 500 μM, FIG. 4, p<0.001",significantly inhibited
same,cell death induced by SIN-1,"SIN-1 500 μM, GYY4137 100 μM and 500 μM, FIG. 9",significantly inhibited
same,"concentration mediating inhibition of cell death, mitochondrial dysfunction and oxidative stress",cells challenged with physiological oxidant species,100 to 500 µM
